Earlier results in patent US10669261B2, “Heteroarylhydroxypyrimidinones as agonists of the APJ receptor” (BRISTOL-MYERS SQUIBB COMPANY, priority 2015, dated 2020).

Conditions: cited from earlier work

apelin
half life in circulation: less than 5 minutes
